Our source for the fold change (FC) and Activity values is ChEMBL document CHEMBL6087474, “Discovery of an Efficacious RET PROTAC Degrader with Enhanced Antiproliferative Activity against Resistant Cancer Cells Harboring RET Solvent-Front Mutations” (J Med Chem, 2025).

The test system of assay [1] is BaF3. The experiment in a line: Inhibition of Shc (unknown origin) phosphorylation in mouse BaF3 cells stably expression KIF5B-RET V804M mutant assessed as fold change in phosphorylated Shc protein level at 11.1 nM measured after 6 hrs by Western blot analysis. Type of assay: cell-based. The note with it: Homo sapiens.
Assay [2] deals with BaF3. Briefly: PROTAC activity at CRBN/KIF5B-RET (unknown origin) expressed in mouse BaF3 cells assessed as induction of RET degradation by measuring fold change at 11.1 nM measured after 6 hrs by Western blot analysis. The note with it: Homo sapiens. Type of assay: cell-based. (In western blotting, separated proteins are transferred to a membrane and probed.)
Assay [3] relates to Kinesin-1 heavy chain/ Tyrosine-protein kinase receptor RET (Homo sapiens), P07949+P33176 [G810C]. Briefly: In vivo PROTAC activity at CRBN/KIF5B-RET-G810C mutant in male BALB/c mouse model implanted with mouse BaF3 cells stably expressing KIF5B-RET-G810C mutant assessed as induction of RET degradation by measuring fold change in RET protein level in tumor at 30 mg/kg, ip measured after 3 days by Western blotting analysis. The class given is functional, organism-based. The note with it: time 3.0 day.

Assay [4] deals with BaF3. The experiment in a line: PROTAC activity at CRBN/KIF5B-RET (unknown origin) expressed in mouse BaF3 cells assessed as induction of RET degradation by measuring fold change at 30 nM preincubated with lenalidomide for 2 hrs followed by compound addition and measured after 6 hrs by Western blot analysis. Type of assay: cell-based. The note with it: Homo sapiens.
In assay [5] the test system is BaF3. The experiment in a line: PROTAC activity at CRBN/KIF5B-RET (unknown origin) expressed in mouse BaF3 cells assessed as induction of RET degradation by measuring fold change at 30 nM preincubated with compound for 2 hrs followed by compound washout and measured after 0.5 hrs by Western blot analysis. The class given is cell-based. The note with it: Homo sapiens.

Assay [6] relates to BaF3. Briefly: Inhibition of RET (unknown origin) phosphorylation in mouse BaF3 cells stably expressing wildtype KIF5B-RET fusion protein assessed as fold change in phosphorylated RET protein level at 33.3 nM measured after 6 hrs by Western blot analysis. Type of assay: cell-based. The note with it: Homo sapiens.
Assay [7] deals with Kinesin-1 heavy chain/ Tyrosine-protein kinase receptor RET (Homo sapiens), P07949+P33176 [G810C]. Briefly: In vivo PROTAC activity at CRBN/KIF5B-RET-G810C mutant in male BALB/c mouse model implanted with mouse BaF3 cells stably expressing KIF5B-RET-G810C mutant assessed as induction of RET degradation by measuring fold change in RET protein level in tumor at 10 mg/kg, ip measured after 3 days by Western blotting analysis. Type of assay: functional, organism-based. Particulars: time 3.0 day.

In assay [8] the test system is BaF3. The experiment in a line: Inhibition of Shc (unknown origin) phosphorylation in mouse BaF3 cells stably expression KIF5B-RET G810R mutant assessed as fold change in phosphorylated Shc protein level at 300 nM measured after 6 hrs by Western blot analysis. Particulars: Homo sapiens. Type of assay: cell-based.
The test system of assay [9] is BaF3. The experiment in a line: Inhibition of Shc (unknown origin) phosphorylation in mouse BaF3 cells stably expression wildtype KIF5B-RET assessed as fold change in phosphorylated Shc protein level at 300 nM measured after 6 hrs by Western blot analysis. Type of assay: cell-based. The note with it: Homo sapiens.
Assay [10] has as its system BaF3. Briefly: PROTAC activity at CRBN/KIF5B-RET (unknown origin) expressed in mouse BaF3 cells assessed as induction of RET degradation by measuring fold change at 30 nM preincubated with MG132 for 2 hrs followed by compound addition and measured after 6 hrs by Western blot analysis. The class given is cell-based. Particulars: Homo sapiens.
Assay [11] concerns BaF3. Briefly: PROTAC activity at CRBN/KIF5B-RET (unknown origin) expressed in mouse BaF3 cells assessed as induction of RET degradation by measuring fold change at 30 nM measured after 0.5 hrs by Western blot analysis. Particulars: Homo sapiens. Type of assay: cell-based.
In assay [12] the test system is BaF3. Briefly: PROTAC activity at CRBN/KIF5B-RET (unknown origin) expressed in mouse BaF3 cells assessed as induction of RET degradation by measuring fold change at 1000 nM measured after 6 hrs by Western blot analysis. The class given is cell-based.
The test system of assay [13] is BaF3. Briefly: PROTAC activity at CRBN/KIF5B-RET (unknown origin) expressed in mouse BaF3 cells assessed as induction of RET degradation by measuring fold change at 900 nM measured after 6 hrs by Western blot analysis. Type of assay: cell-based. Particulars: Homo sapiens.
Assay [14] relates to BaF3. Briefly: PROTAC activity at CRBN/KIF5B-RET (unknown origin) expressed in mouse BaF3 cells assessed as induction of RET degradation by measuring fold change at 30 nM preincubated with compound for 2 hrs followed by compound washout and measured after 1 hrs by Western blot analysis. The class given is cell-based. Particulars: Homo sapiens.
The subject of assay [15] is BaF3. The experiment in a line: PROTAC activity at CRBN/KIF5B-RET (unknown origin) expressed in mouse BaF3 cells assessed as induction of RET degradation measured after 6 hrs by Western blot analysis. The class given is cell-based. Particulars: Homo sapiens.

As to `COc1ccc(CN2C3CC2CN(c2ccc(-c4cc(-c5cnn(C6CCN(CCCCCC#Cc7cccc8c7CN(C7CCC(=O)NC7=O)C8=O)CC6)c5)cn5ncc(C#N)c45)cn2)C3)cn1` (stereo not given), the fold change (FC) worked out at 1 with BaF3 [1]; 0.4 with BaF3 [2]; 0.4 in assay [3]; 0.9 with BaF3 [4]; 0.5 in the assay on BaF3 [5]; 0.3 in the assay on BaF3 [6]. For the same molecule, the fold change (FC) was 0.5 in assay [7]; 1 in the assay with BaF3 [8]; 0.5 in the assay on BaF3 [9]; 0.9 in the assay on BaF3 [10]; 0.7 in the assay on BaF3 [11]; 0.2 with BaF3 [12]. The fold change (FC) in the assay with BaF3 [13] came out at 0.2; with BaF3 [14], 0.6. The Activity entry in the assay on BaF3 [15] is “Dose-dependent-effect”.
